US9822179B2, “Recombinant TNF ligand family member polypeptides with antibody binding domain and uses therefor” (UNIVERSITAT STUTTGART, priority 2011, dated 2017)
Blank lines part the entries; values can stand above or below the molecule they belong to.

Chains of the proteins cited; added tags and fusions are not shown. Residues count along the entry.
UniProt P07724, 25-608: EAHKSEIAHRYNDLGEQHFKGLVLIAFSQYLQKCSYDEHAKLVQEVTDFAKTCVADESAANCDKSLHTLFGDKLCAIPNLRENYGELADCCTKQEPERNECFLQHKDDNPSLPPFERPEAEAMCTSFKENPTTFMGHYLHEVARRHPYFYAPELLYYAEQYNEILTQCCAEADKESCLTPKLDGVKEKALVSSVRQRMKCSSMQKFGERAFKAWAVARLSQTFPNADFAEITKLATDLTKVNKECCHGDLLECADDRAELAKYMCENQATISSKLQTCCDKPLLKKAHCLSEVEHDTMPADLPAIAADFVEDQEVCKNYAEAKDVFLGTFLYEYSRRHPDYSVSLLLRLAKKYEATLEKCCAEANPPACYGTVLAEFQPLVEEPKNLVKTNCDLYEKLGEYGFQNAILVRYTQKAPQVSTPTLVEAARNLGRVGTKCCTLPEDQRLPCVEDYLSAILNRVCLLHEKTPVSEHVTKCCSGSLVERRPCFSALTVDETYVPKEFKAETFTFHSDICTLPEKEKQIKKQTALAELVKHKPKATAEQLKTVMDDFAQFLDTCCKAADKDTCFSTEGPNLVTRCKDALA

Key:
[1] = test system: EGFR+ Huh-7 hepatocellular carcinoma cells; test: EGFR-directed induction of cell death in Huh-7 cells, serial dilutions of protein, crystal violet; assay type: cell-based
Method: After 16 h, cell viability was determined using MTT staining (Colo 205) or crystal violet staining (Huh-7) and data were normalized using bortezomib-treated cells as control (mean SEM, n=3). (B) 1×10^4 Colo205 cells per well were grown in 96-well plates using medium with 0.1% FCS. […] (C) 1×10^4 Huh-7 cells per well were grown in 96-well plates and treated with 20 ng/ml bortezomib or with a combination of bortezomib and 10 μM zVADfmk.
After 16 h, cell viability was determined using crystal violet staining. […] The values for SEQ ID NO: 102 were plotted in both panels for comparison.
As a positive control, cells were killed with 0.25% Triton X-100. Cell death assays with Huh-7 and HepG2 cells were performed in the absence (FIG. 6, Jurkat cells) or presence of Bortezomib (FIG. 7, Huh-7: 250 ng/ml, FIG. 6, HepG2: 500 ng/ml, FIG. 18, Huh-7: 250 ng/ml), Selleck Chemicals, Houston, Tex.). Bortezomib was added 30 min prior incubation with the proapoptotic ligands to sensitize cells for the induction of cell death (FIGS. 6, 7). Alternatively, cells were preincubated for 30 min with the indicated concentrations of TRAIL fusion proteins followed by addition of serial dilutions of Bortezomib (FIG. 8). TRAIL only treated cells are shown in each panel for the applied TRAIL concentration (Bortezomib 0 ng/ml) (FIG. 8). After 16 h incubation, cell viability was determined either by crystal violet staining (Huh-7, HepG2) or the MTT method (Jurkat) (Wuest et al., 2002). In the latter case a lysis buffer consisting of 15% SDS in DMF/H2O (1:1), pH 4.5 (with […]) acetic acid) was used.

[2] = target: mouse serum albumin (MSA) (Mus musculus, UniProt P07724); test: Albumin binding assay by size exclusion chromatography, MSA; conditions: 1 h at RT, equimolar MSA
Method: (§1) Both proteins were incubated for 1 h at RT with equimolar concentrations of human serum albumin (HSA) or mouse serum albumin (MSA) and subsequently separated by size exclusion chromatography. Thyroglobulin (669 kDa), apoferritin (443 kDa), -amylase (200 kDa), bovine serum albumin (67 kDa), carbonic anhydrase (29 kDa) and FLAG peptide (1 kDa) were used as standard proteins/peptides.

[3] = target: human serum albumin (HSA) (Homo sapiens, UniProt P02768); test: Albumin binding assay by size exclusion chromatography, HSA; conditions: 1 h at RT, equimolar HSA
Method: as §1

[4] = test system: Colo205 xenograft tumor; test: Colo205 xenograft tumor model; conditions: 8 daily i.p. injections of 0.45 nmol + bortezomib every second day

albumin binding [2]: verified
albumin binding [3]: verified
B1: SEQ ID NO: 126: dimeric EGFR-specific TRAIL fusion protein with albumin binding domain (ABD) at the C-terminus (protein)
chain: MDWTWRVFCLLAVAPGAHSLEASDYKDDDDKGAEVQLVESGGGLVQPGGSLRLSCAASGFSLTNYGVHWVRQAPGKGLEWLGVIWSGGNTDYNTPFTSRFTISRDNSKNTLYLQMNSLRAEDTAVYYCARALTYYDYEFAYWGQGTTVTVSSGGGGSDIQLTQSPSFLSASVGDRVTITCRASQSIGTNIHWYQQKPGKAPKLLIKYASESISGVPSRFSGSGSGTEFTLTISSLQPEDFATYYCQQNNNWPTTFGAGTKLEIKRAAAGNGTSNGTSEFTRGTSEETISTVQEKQQNISPLVRERGPQRVAAHITGTRGRSNTLSSPNSKNEKALGRKINSWESSRSGHSFLSNLHLRNGELVIHEKGFYYIYSQTYFRFQEEIKENTKNDKQMVQYIYKYTSYPDPILLMKSARNSCWSKDAEYGLYSIYQGGIFELKENDRIFVSVTNEHLIDMDHEASFFGAFLVGGGGSGGGSTSEETISTVQEKQQNISPLVRERGPQRVAAHITGTRGRSNTLSSPNSKNEKALGRKINSWESSRSGHSFLSNLHLRNGELVIHEKGFYYIYSQTYFRFQEEIKENTKNDKQMVQYIYKYTSYPDPILLMKSARNSCWSKDAEYGLYSIYQGGIFELKENDRIFVSVTNEHLIDMDHEASFFGAFLVGGGGSGGGSTSEETISTVQEKQQNISPLVRERGPQRVAAHITGTRGRSNTLSSPNSKNEKALGRKINSWESSRSGHSFLSNLHLRNGELVIHEKGFYYIYSQTYFRFQEEIKENTKNDKQMVQYIYKYTSYPDPILLMKSARNSCWSKDAEYGLYSIYQGGIFELKENDRIFVSVTNEHLIDMDHEASFFGAFLVGGGSGGQHDEAVDANSLAEAKVLANRELDKYGVSDYYKNLINNAKTVEGVKALIDEILAALP
modifications: VH-VL(EGFR)-Glyco-scTrail-ABD
bioactivity compared to SEQ ID NO: 102 ([1]; 250 ng/ml bortezomib, 16 h): bioactivity comparable to the dimeric TRAIL fusion protein lacking an ABD

B2: SEQ ID NO: 97: variant of SEQ ID NO: 96 whose linker X comprises two N-glycosylation sites; monomeric glycosylated, monovalent TRAIL fusion protein (protein)
chain: MDWTWRVFCLLAVAPGAHSLEASDYKDDDDKGAEVQLVESGGGLVQPGGSLRLSCAASGFSLTNYGVHWVRQAPGKGLEWLGVIWSGGNTDYNTPFTSRFTISRDNSKNTLYLQMNSLRAEDTAVYYCARALTYYDYEFAYWGQGTTVTVSSGGGGSGGGGSGGGGSDIQLTQSPSFLSASVGDRVTITCRASQSIGTNIHWYQQKPGKAPKLLIKYASESISGVPSRFSGSGSGTEFTLTISSLQPEDFATYYCQQNNNWPTTFGAGTKLEIKRAAAGNGTSNGTSEFTRGTSEETISTVQEKQQNISPLVRERGPQRVAAHITGTRGRSNTLSSPNSKNEKALGRKINSWESSRSGHSFLSNLHLRNGELVIHEKGFYYIYSQTYFRFQEEIKENTKNDKQMVQYIYKYTSYPDPILLMKSARNSCWSKDAEYGLYSIYQGGIFELKENDRIFVSVTNEHLIDMDHEASFFGAFLVGGGGSGGGSTSEETISTVQEKQQNISPLVRERGPQRVAAHITGTRGRSNTLSSPNSKNEKALGRKINSWESSRSGHSFLSNLHLRNGELVIHEKGFYYIYSQTYFRFQEEIKENTKNDKQMVQYIYKYTSYPDPILLMKSARNSCWSKDAEYGLYSIYQGGIFELKENDRIFVSVTNEHLIDMDHEASFFGAFLVGGGGSGGGSTSEETISTVQEKQQNISPLVRERGPQRVAAHITGTRGRSNTLSSPNSKNEKALGRKINSWESSRSGHSFLSNLHLRNGELVIHEKGFYYIYSQTYFRFQEEIKENTKNDKQMVQYIYKYTSYPDPILLMKSARNSCWSKDAEYGLYSIYQGGIFELKENDRIFVSVTNEHLIDMDHEASFFGAFLVG
modifications: N-glycosylated; VH-VL(EGFR)-scTRAIL fusion protein with glycosylation motif
effect on tumor growth [4]: delayed tumor growth
regression of tumors [4]: did not induce regression of tumors
bioactivity in relation to SEQ ID NO: 96 ([1]; 250 ng/ml Bortezomib): identical bioactivity
